PMC11352099 (RSC Medicinal Chemistry, 2024)

What was measured:
in vitro = conditions: human
SARS-CoV-2 nsp14 MTase = SARS-CoV-2 nsp14 MTase (Severe acute respiratory syndrome coronavirus 2, UniProt P0DTD1); assay type: biochemical; conditions: methyl group on the amidic nitrogen

Q: What does the source list for `Cc1cc(=O)oc2cc(NC(=O)[C@H]3O[C@@H](n4cc(C#Cc5cncnc5)c5c(N)ncnc54)[C@H](O)[C@@H]3O)ccc12` [18l]?
A: Papp A-B (Caco-2 monolayers): 10.1 ± 4.0 cm/s x 10-6; efflux ratio at 2 h, 10 µM (in vitro; Caco-2): 0.8; recovery at 2 h, 10 µM (in vitro; Caco-2, Recovery (%) B-A): 101%; Papp A→B at 2 h, 10 µM (in vitro; Caco-2, pH 7.4): 10.1 ± 4 ×10⁻⁶ cm/s

Q: With `Cc1cc(=O)[nH]c2cc(N(C)C(=O)[C@H]3O[C@@H](n4cc(C#Cc5cncnc5)c5c(N)ncnc54)[C@H](O)[C@@H]3O)ccc12` [18q] as the compound, how does the “fold decrease in inhibitory activity” value (SARS-CoV-2 nsp14 MTase) read?
A: Its value is 20 fold.

Q: For `C[C@H]1O[C@@H](O[C@H]2[C@@H](O)C[C@H](O[C@H]3[C@@H](O)C[C@H](O[C@H]4CC[C@@]5(C)[C@H](CC[C@@H]6[C@@H]5C[C@@H](O)[C@]5(C)[C@@H](C7=CC(=O)OC7)CC[C@]65O)C4)O[C@@H]3C)O[C@@H]2C)C[C@H](O)[C@@H]1O` [Digoxin, reference compound], which Papp B→A at 2 h, 10 µM (in vitro; Caco-2, pH 7.4) is on record?
A: Its Papp B→A at 2 h, 10 µM is 13.8 ± 0.9 ×10⁻⁶ cm/s.
